{"source": "ChEMBL document CHEMBL4321821", "about": "“Opioids as Substrates and Inhibitors of the Genetically Highly Variable Organic Cation Transporter OCT1” (J Med Chem, 2019)", "key": {"[1]": {"molecular_target": "T1, Solute carrier family 22 member 1 (Homo sapiens, UniProt O15245)", "T1 sequence (O15245 whole entry)": "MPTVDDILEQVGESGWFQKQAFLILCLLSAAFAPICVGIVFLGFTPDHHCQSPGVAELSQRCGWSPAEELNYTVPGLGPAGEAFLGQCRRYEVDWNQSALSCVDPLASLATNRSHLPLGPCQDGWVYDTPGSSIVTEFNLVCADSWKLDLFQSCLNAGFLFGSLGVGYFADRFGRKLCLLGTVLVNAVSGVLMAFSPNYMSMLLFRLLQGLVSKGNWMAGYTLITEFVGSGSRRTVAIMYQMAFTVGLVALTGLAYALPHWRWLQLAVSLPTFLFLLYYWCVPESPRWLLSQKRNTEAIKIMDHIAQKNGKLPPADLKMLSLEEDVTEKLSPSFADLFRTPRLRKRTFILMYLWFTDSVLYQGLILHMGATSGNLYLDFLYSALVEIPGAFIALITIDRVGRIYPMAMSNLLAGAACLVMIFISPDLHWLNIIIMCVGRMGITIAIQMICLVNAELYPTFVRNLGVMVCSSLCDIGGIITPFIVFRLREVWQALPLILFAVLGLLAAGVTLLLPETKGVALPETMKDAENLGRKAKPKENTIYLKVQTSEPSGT", "assay": "(§1) Substrate activity at human OCT1 expressed in HEK293 cells assessed as increase in compound uptake at 0.05 uM incubated for 2 mins by LC-MS/MS analysis relative to control empty vector transfected cells", "format": "cell-based", "settings": "hek293, 2 min, 0.05 µM"}, "[2]": {"molecular_target": "T1, Solute carrier family 22 member 1", "assay": "(§2) Substrate activity at human OCT1 expressed in HEK293 cells assessed as increase in compound uptake at 0.1 uM incubated for 2 mins by LC-MS/MS analysis relative to control empty vector transfected cells", "format": "cell-based", "settings": "hek293, 2 min, 0.1 µM"}, "[3]": {"molecular_target": "T1, Solute carrier family 22 member 1", "assay": "(§3) Substrate activity at human OCT1 expressed in HEK293 cells assessed as increase in compound uptake at 0.5 uM incubated for 2 mins by LC-MS/MS analysis relative to control empty vector transfected cells", "format": "cell-based", "settings": "hek293, 2 min, 0.5 µM"}, "[4]": {"molecular_target": "T2, OCT1 (SLC22A1) (Homo sapiens, UniProt O15245)", "T2 sequence (O15245 whole entry)": "T1 sequence (O15245 whole entry)", "assay": "as §1", "format": "cell-based", "settings": "HEK293 cells that express human OCT1, read-out: FC"}, "[5]": {"molecular_target": "T2, OCT1 (SLC22A1)", "assay": "as §2", "format": "cell-based", "settings": "HEK293 cells that express human OCT1, read-out: FC"}, "[6]": {"molecular_target": "T2, OCT1 (SLC22A1)", "assay": "as §3", "format": "cell-based", "settings": "HEK293 cells that express human OCT1, read-out: FC"}, "[7]": {"molecular_target": "T1, Solute carrier family 22 member 1", "assay": "Substrate activity at OCT1 in primary human hepatocytes assessed as increase in compound uptake at 0.1 uM incubated for 2 mins by LC-MS/MS analysis relative to control", "format": "cell-based"}, "[8]": {"molecular_target": "T1, Solute carrier family 22 member 1", "assay": "Substrate activity at OCT1 in primary human hepatocytes assessed as increase in compound uptake at 1 uM incubated for 2 mins by LC-MS/MS analysis relative to control", "format": "cell-based"}, "[9]": {"assay": "Ratio of unbound Cmax in human at 450 mg, po to inhibition of human OCT1 expressed in HEK293 cells assessed as reduction in ASP+ substrate uptake by microplate reader based analysis", "format": "ADME, organism-based", "settings": "in vivo"}, "[10]": {"assay": "Ratio of unbound maximal portal vein concentration in human at 450 mg, po to inhibition of human OCT1 expressed in HEK293 cells assessed as reduction in ASP+ substrate uptake by microplate reader based analysis", "format": "ADME, organism-based", "settings": "in vivo"}}}
{"smiles": "CN1CC[C@]23c4c5ccc(O)c4O[C@H]2[C@@H](O)C=C[C@H]3[C@H]1C5", "note": "[MORPHINE]", "values": [{"measurement": "fold change (FC)", "setting": "[1]", "result": 4.6}, {"measurement": "fold change (FC)", "setting": "[2]", "result": 5.1}, {"measurement": "fold change (FC)", "setting": "[3]", "result": 4.3}]}
{"smiles": "C[N+]1(CC2CC2)CC[C@]23c4c5ccc(O)c4O[C@H]2C(=O)CC[C@@]3(O)[C@H]1C5", "note": "(stereo not given in full) [METHYLNALTREXONE]", "values": [{"measurement": "uptake ratio at 2 min, 0.05 µM", "setting": "[4]", "result": 32.4}, {"measurement": "uptake ratio at 2 min, 0.1 µM", "setting": "[5]", "result": "67.9 to 86"}, {"measurement": "uptake ratio at 2 min, 0.5 µM", "setting": "[6]", "result": 85.9}, {"measurement": "fold change (FC)", "setting": "[7]", "result": 7.7}, {"measurement": "fold change (FC)", "setting": "[8]", "result": 5.9}, {"measurement": "Ratio", "setting": "[9]", "result": 0.0005}, {"measurement": "Ratio", "setting": "[10]", "result": 0.277}]}
